Measurements taken from US20240174596A1 (Northwestern University, priority 2021, published 2024).

Sequences of proteins named here, by UniProt entry; tags and fusion partners are left off. Residues count along the entry.
UniProt P80147, 29-500: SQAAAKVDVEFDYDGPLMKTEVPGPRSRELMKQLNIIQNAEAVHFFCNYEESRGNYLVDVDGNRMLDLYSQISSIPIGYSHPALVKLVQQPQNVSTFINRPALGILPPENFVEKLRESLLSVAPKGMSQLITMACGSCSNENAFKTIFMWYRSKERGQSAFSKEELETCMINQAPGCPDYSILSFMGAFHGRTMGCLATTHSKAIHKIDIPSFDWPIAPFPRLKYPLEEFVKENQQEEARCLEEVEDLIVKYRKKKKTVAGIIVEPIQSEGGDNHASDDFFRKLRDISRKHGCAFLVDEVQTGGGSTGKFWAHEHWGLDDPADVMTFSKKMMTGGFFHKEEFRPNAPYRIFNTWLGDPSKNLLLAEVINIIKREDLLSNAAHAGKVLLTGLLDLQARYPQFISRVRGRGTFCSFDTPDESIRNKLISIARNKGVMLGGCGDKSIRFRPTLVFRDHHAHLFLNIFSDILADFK

Target: GABA-AT (Sus scrofa, UniProt P80147)
Experiment: Reversible inhibition of GABA-AT (coupled assay with SSDH)
Assay type: biochemical, pig
Set-up: was purified from pig brain following a procedure described previously; from tissue; host or cells: pig brain
Conditions: Ki = IC50/(1 + [S]/Km); 9-point assay
Procedure: All reagents for enzyme purification and assays were purchased from Sigma-Aldrich (St. Louis, MO, USA). […] All the enzyme assays for the inactivation, partition ratio, and dialysis experiment were recorded on a Synergy H1 hybrid multimode microplate reader (Biotek, USA) with transparent 96-well plates.
96-well plates were loaded with 80 μL of an assay mixture containing excess SSDH, 1 mM NADP^+, 11.1 mM GABA, and 10 μL of various concentrations of the tested compounds in 50 mM potassium pyrophosphate buffer (pH 8.5, 5 mM α-ketoglutarate, and 5 mM β-mercaptoethanol). […] The microplate was shaken at 25° C. for 1 min, and the remaining enzyme activity was determined by observing the change in absorbance at 340 nm at 25° C. based on the conversion of NADP^+ to NADPH. […] Subsequent Ki values were determined using equation (2) All assays were performed in duplicate.

pKi: 4.05
SMILES: N[C@H]1C[C@@H](C(=O)O)CC1(F)F [Compound 4, (1R,4S)-4-Amino-3,3-difluorocyclopentanecarboxylic acid hydrochloric acid salt, reference compound]

pKi: −log10 of the molar value. Structures can show the parent of a compound that is named as a salt.
